# From PubChem BioAssay AID1214 (Sanford-Burnham Center for Chemical Genomics, 2008)
# Chains of the proteins cited; added tags and fusions are not shown.
# UniProt P34949, whole entry: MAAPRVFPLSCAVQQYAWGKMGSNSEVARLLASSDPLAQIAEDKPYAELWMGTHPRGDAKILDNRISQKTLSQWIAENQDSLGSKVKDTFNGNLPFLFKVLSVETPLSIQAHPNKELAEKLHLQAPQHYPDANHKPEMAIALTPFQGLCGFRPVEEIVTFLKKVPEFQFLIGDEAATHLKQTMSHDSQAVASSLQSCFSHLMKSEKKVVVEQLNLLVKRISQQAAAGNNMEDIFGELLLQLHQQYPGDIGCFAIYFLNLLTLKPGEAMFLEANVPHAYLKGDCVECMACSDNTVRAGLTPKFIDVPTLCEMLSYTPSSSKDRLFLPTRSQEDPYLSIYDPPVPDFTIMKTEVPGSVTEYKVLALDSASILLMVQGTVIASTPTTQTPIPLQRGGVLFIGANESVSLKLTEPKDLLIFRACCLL
# The list shows a part of the results. The source made the active and inactive calls.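 Rule for the calls: active = activation factor of 2 or more at 20 µM, relative to plate controls; inactive = the rest.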
# Target: Mannose-6-phosphate isomerase (Homo sapiens) (UniProt P34949)
# Assay: MPI enzyme activity enhancement – biochemical, fluorescence intensity, near-Km mannose 6-phosphate, primary screen (AID 1214)
# Details: purified human PMI, coupled resazurin fluorescence, 20 min, at 20 µM; stronger effect = higher value, 1 = vehicle control, 0 substrate-free wells
row,Structure (SMILES),activation factor
1,Cc1cc(SC(NC(=O)c2ccccc2)C(Cl)(Cl)Cl)nc(C(C)C)n1 (configuration not stated),inactive
2,COc1ccccc1OP(C)(=O)Nc1ccccc1 (configuration not stated),inactive
3,CP(=O)(Nc1ccccc1Br)Oc1ccccc1 (configuration not stated),inactive: 1.1
4,CP(=S)(Nn1cnnc1)Oc1ccccc1 (configuration not stated),inactive: 0.9
5,Cc1cc(C)cc(OP(C)(=O)Nc2ccc(SC(F)(F)F)cc2)c1 (configuration not stated),inactive: 0.8
6,CP(=O)(NC(=O)Nc1ccccc1)Oc1ccccc1 (configuration not stated),inactive
7,O=C(COc1ccccc1)OC1CN2CCC1CC2 (configuration not stated),inactive
8,CP(=O)(Oc1ccccc1)OC(c1ccccc1)C(F)(F)F (configuration not stated),inactive
9,Cc1cccc(C)c1OP(C)(=O)Nc1ccc(SC(F)(F)F)cc1 (configuration not stated),inactive: 0.7
10,COP1(=S)c2c(C)nn(CCC#N)c2N=C(c2ccc(F)cc2)N1C (configuration not stated),inactive
11,CP(=O)(Nc1ccccn1)Oc1ccc(Cl)cc1 (configuration not stated),inactive
12,CCOP(C)(=S)SCC(=O)NC(C)C(=O)O (configuration not stated),inactive: 0.9
13,CCOC(=O)c1ccc(NP(C)(=O)Oc2ccc(OC)cc2)cc1 (configuration not stated),inactive
14,COc1ccc2nc(NP(=O)(c3ccccc3)c3ccccc3)sc2c1,inactive
15,Cc1cc(=O)[nH]c(N[N+](=O)[O-])n1,inactive
16,CCN(CC)CCCOC(=O)C(O)(c1ccccc1)c1ccccc1,inactive: 1.1
17,COc1ccc(N/C(=N/P(=O)(N2CCOCC2)N2CCOCC2)N2CCOCC2)cc1,inactive
18,Cc1cccc(C)c1OP(C)(N)=O (configuration not stated),inactive: 1.5
19,CC(C)(C)c1ccc(OP(C)(=O)Nc2ccc(SC(F)(F)F)cc2)cc1 (configuration not stated),inactive: 0.8
20,Cc1ccc2nc3c(c(C)c2c1)CC(C(Cl)Cl)S3 (configuration not stated),inactive
21,O=[N+]([O-])c1ccc2c(c1)C=Nc1ccccc1O2,inactive: 0.3
22,COc1ccc(OP(C)(=O)Nc2cccc(F)c2)cc1 (configuration not stated),inactive

row,Structure (SMILES),activation factor
1,CCN(CC)C(=S)SC(NC=O)C(Cl)(Cl)Cl (configuration not stated),inactive
2,COc1ccccc1OP(C)(=O)Nc1cc(Cl)ccc1C (configuration not stated),inactive
3,Cc1cc(C)cc(OP(C)(N)=O)c1 (configuration not stated),inactive
4,CCOC(=O)c1ccc(NP(C)(=O)Oc2ccccc2)cc1 (configuration not stated),inactive
5,Cc1ccc(NP(C)(=O)Oc2ccccc2)c(C)c1 (configuration not stated),inactive
6,COc1ccccc1OP(C)(=O)Nc1ccc(C)cc1 (configuration not stated),inactive: 0.9
7,O=P(Nc1nccs1)(Oc1ccccc1)Oc1ccccc1,inactive
8,CCOP1(=S)c2c(C)nn(CCC#N)c2N=C(c2ccc(F)cc2)N1C (configuration not stated),inactive
9,CC1=NCCc2c1[nH]c1ccccc21.O=[N+]([O-])c1cc([N+](=O)[O-])c(O)c([N+](=O)[O-])c1,inactive
10,O=[N+]([O-])c1ccc2c(c1)nnn2O,inactive
11,Cc1cc(C)cc(OP(C)(=O)Nc2ccc(C)cc2C)c1 (configuration not stated),inactive: 0.9
12,Cc1cccc(OCC(=O)OC2CN3CCC2CC3)c1 (configuration not stated),inactive
13,CCOC(=O)c1ccc(NP(C)(=O)Oc2cc(C)cc(C)c2)cc1 (configuration not stated),inactive
14,COc1cc(C(=O)NCC2(N3CCOCC3)CCCCC2)cc(Cl)c1OC(C)C,inactive
15,Cc1ccc(NCCc2c([N+](=O)[O-])cc([N+](=O)[O-])cc2[N+](=O)[O-])cc1,inactive
16,CP(=O)(Nc1cccc(Br)c1)Oc1ccccc1 (configuration not stated),inactive: 0.9
17,Cc1cc(C)cc(OP(C)(=O)Nc2ccccn2)c1 (configuration not stated),inactive
18,Cc1ccc(C)c(NP(C)(=O)Oc2ccccc2)c1 (configuration not stated),inactive
19,O=[N+]([O-])c1cc([N+](=O)[O-])c(-n2nnc3ccccc32)c([N+](=O)[O-])c1,inactive
20,CN(C(=O)Cc1ccc(Cl)c(Cl)c1)[C@@H]1CCCC[C@H]1N1CCCC1,inactive
21,Cc1nc2ccc3ccccc3c2s1.O=[N+]([O-])c1cc([N+](=O)[O-])c(O)c([N+](=O)[O-])c1,inactive
22,COc1cc(C2NCCC3(OCCO3)C2(C)C)cc(OC)c1OC.O=[N+]([O-])c1cc([N+](=O)[O-])c(O)c([N+](=O)[O-])c1 (configuration not stated),inactive

row,Structure (SMILES),activation factor
1,CP(=O)(Nc1ccc(SC(F)(F)F)cc1)Oc1ccccc1 (configuration not stated),inactive: 0.9
2,CCCOc1ccc(NP(C)(=O)Oc2ccc(Cl)cc2)cc1 (configuration not stated),inactive: 0.9
3,O=P1(Nc2ccc(Br)cn2)COc2ccccc2OC1,inactive
4,CN1CCCCC1COC(=O)C1(O)c2ccccc2CCc2ccccc21 (configuration not stated),inactive: 0.9
5,COc1ccccc1OP(C)(=O)Nc1c(C)cccc1C (configuration not stated),inactive: 1.1
6,COc1ccc(NP(C)(=O)Oc2ccccc2OC)cc1 (configuration not stated),inactive
7,CN(C)CCOC(=O)C(O)(c1ccccc1)C1CCCCC1 (configuration not stated),inactive
8,O=P(Nc1ccccn1)(c1ccc(Br)cc1)c1ccc(Br)cc1,inactive
9,COc1ccc(OP(C)(=O)Nc2cccc(Br)c2)cc1 (configuration not stated),inactive
10,O=[N+]([O-])c1cc([N+](=O)[O-])c(NCC2CCS(=O)(=O)C2)c([N+](=O)[O-])c1 (configuration not stated),inactive: 0.9
11,CC(=O)NC(SC(=S)N(C)C)C(Cl)(Cl)Cl (configuration not stated),inactive
12,CCOP(C)(=S)SCC(=O)NC(C)(CC)C(=O)O (configuration not stated),inactive: 0.9
13,O=P(Nc1nccs1)(c1ccccc1)c1ccccc1,inactive
14,CC(C)C(=O)NC(Sc1ccccc1)C(Cl)(Cl)Cl (configuration not stated),inactive
15,Cc1ccccc1NP(C)(=O)Nc1ccccc1C,inactive: 0.9
16,CP(=O)(Nc1ccc2c(c1)OCCO2)Oc1ccccc1 (configuration not stated),inactive
17,CC(C)c1ccc(OP(C)(=O)Nc2ccc(SC(F)(F)F)cc2)cc1 (configuration not stated),inactive: 0.7
18,CC(C)(C)C(=O)NC(Sc1ccccc1)C(Cl)(Cl)Cl (configuration not stated),inactive
19,CP(=O)(Nc1ccccc1F)Oc1ccccc1 (configuration not stated),inactive
20,CCOc1ccc(C2=NCC(CBr)S2)cc1 (configuration not stated),inactive
21,O=C(OCCN1CCN(CCOCc2ccccc2)CC1)C(O)(c1ccccc1)c1ccccc1,inactive: 1.3
22,COc1ccc(OP(C)(=O)Nc2ccc(SC(F)(F)F)cc2)cc1 (configuration not stated),inactive: 1.1

row,Structure (SMILES),activation factor
1,CCOC(=O)c1ccc(NP(C)(=O)Oc2ccc(F)cc2)cc1 (configuration not stated),inactive
2,CCOC(=O)NC(Sc1ccccc1)C(Cl)(Cl)Cl (configuration not stated),inactive
3,CCNC(=S)/N=C(\N)N[N+](=O)[O-],inactive
4,O=c1c2cc([N+](=O)[O-])ccc2[nH]c2c([N+](=O)[O-])cc([N+](=O)[O-])cc12,inactive
5,CP(=O)(Nc1ccccc1)Oc1ccc(F)cc1 (configuration not stated),inactive
6,CCN(CC)CCCOC(=O)C(O)(c1ccccc1)C1CCCCC1 (configuration not stated),inactive: 1.2
7,COC(=O)c1cc2c(s1)N=C(c1ccccc1)N(C)P2(=O)N1CCOCC1 (configuration not stated),inactive
8,COc1ccc(OP(C)(=O)Nc2ccccc2Br)cc1 (configuration not stated),inactive
9,COc1ccccc1OP(C)(=O)Nc1ccc(C)c(C)c1 (configuration not stated),inactive: 1.1
10,CCOP(=O)(Nc1ccccc1)OCC,inactive
11,Cc1cc(C)cc(OP(C)(=O)Nc2cccc(C(F)(F)F)c2)c1 (configuration not stated),inactive: 0.9
12,CP(=O)(OCCOc1ccccc1)OCCOc1ccccc1,inactive
13,CP(=O)(Nc1ccc(Cl)cc1Cl)Oc1ccccc1 (configuration not stated),inactive
14,Cc1nc2ccc3ccccc3c2o1.O=[N+]([O-])c1cc([N+](=O)[O-])c(O)c([N+](=O)[O-])c1,inactive: 0.5
15,CN(C)CCOC(=O)C(O)(c1ccccc1)C1CCCC1 (configuration not stated),inactive: 1.1
16,COc1ccc(OP(C)(=O)Nc2ccccn2)cc1 (configuration not stated),inactive
17,COc1ccccc1OP(=O)(Nc1ccc(C)cn1)Oc1ccccc1OC,inactive
18,Cc1ccc(N/C(=N/P(=O)(N2CCOCC2)N2CCOCC2)N2CCOCC2)cc1,inactive
19,CCc1ccc(OP(C)(=O)O)cc1,inactive
20,COc1ccccc1OP(C)(=O)Nc1ccc(C)cc1C (configuration not stated),inactive: 0.9
21,CP(=O)(Nc1ccccn1)Oc1ccccc1 (configuration not stated),inactive: 0.9
22,O=C(NC(Sc1ccncn1)C(Cl)(Cl)Cl)c1ccccc1 (configuration not stated),inactive

row,Structure (SMILES),activation factor
1,Oc1ccccc1CNc1ccccn1,inactive
2,O=[N+]([O-])c1cc([N+](=O)[O-])c(Nc2ccccn2)c([N+](=O)[O-])c1,inactive: 0.5
3,Cc1c(NP(C)(=O)Oc2ccc(C(C)C)cc2)c(=O)n(-c2ccccc2)n1C (configuration not stated),inactive: 1.2
4,CCc1ccc(OP(C)(=O)Nc2cccnc2)cc1 (configuration not stated),inactive: 1.1
5,Cc1ccc(NP(=O)(Oc2ccccc2)Oc2ccccc2)nc1,inactive
6,CP(=O)(Oc1ccccc1)N1CCOC1=O (configuration not stated),inactive
7,COc1ccccc1OP(C)(=O)Nc1c(C)n(C)n(-c2ccccc2)c1=O (configuration not stated),inactive
8,CC(=O)N1C2C3N(C(C)=O)C1C1N(C(C)=O)C(C(N1C(C)=O)N3C(C)=O)N2C(C)=O,inactive
9,COc1ccc(OP(C)(=O)Nc2ccc(Br)cc2)cc1 (configuration not stated),inactive
10,CCN(CC)CC(O)COC(=O)C(O)(c1ccccc1)C1CCCCC1 (configuration not stated),inactive
11,CC1CCN(C(=O)Oc2c(Cl)cc(Cl)c3cccnc23)CC1,inactive
12,CN(C)C(=O)OCCc1n(C)cc[n+]1C,inactive
13,CN(C)C(=O)c1c([N+](=O)[O-])cc([N+](=O)[O-])cc1[N+](=O)[O-],inactive: 0.9
14,CP(=O)(Nc1ccc(Cl)cc1)Oc1ccc(F)cc1 (configuration not stated),inactive: 0.9
15,CCN(/C(=N/P(=O)(N1CCOCC1)N1CCOCC1)N1CCOCC1)c1ccc(OC)cc1,inactive
16,CC(C)(C)c1ccc(OP(C)(=O)O)cc1,inactive
17,COc1ccccc1OP(C)(=O)Nc1ccccc1Br (configuration not stated),inactive: 1.1
18,CP(=O)(OC12CC3CC(CC(C3)C1)C2)OC12CC3CC(CC(C3)C1)C2,inactive
19,CCOC(=O)c1ccc(NP(C)(=O)Oc2ccc(Cl)cc2)cc1 (configuration not stated),inactive: 0.9
